Broadly, the inhibition is the drop in the measured response relative to a control, in per cent.

Amino acid sequences for entries named in this document (tags omitted).
UniProt Q8C167, whole entry, looked up: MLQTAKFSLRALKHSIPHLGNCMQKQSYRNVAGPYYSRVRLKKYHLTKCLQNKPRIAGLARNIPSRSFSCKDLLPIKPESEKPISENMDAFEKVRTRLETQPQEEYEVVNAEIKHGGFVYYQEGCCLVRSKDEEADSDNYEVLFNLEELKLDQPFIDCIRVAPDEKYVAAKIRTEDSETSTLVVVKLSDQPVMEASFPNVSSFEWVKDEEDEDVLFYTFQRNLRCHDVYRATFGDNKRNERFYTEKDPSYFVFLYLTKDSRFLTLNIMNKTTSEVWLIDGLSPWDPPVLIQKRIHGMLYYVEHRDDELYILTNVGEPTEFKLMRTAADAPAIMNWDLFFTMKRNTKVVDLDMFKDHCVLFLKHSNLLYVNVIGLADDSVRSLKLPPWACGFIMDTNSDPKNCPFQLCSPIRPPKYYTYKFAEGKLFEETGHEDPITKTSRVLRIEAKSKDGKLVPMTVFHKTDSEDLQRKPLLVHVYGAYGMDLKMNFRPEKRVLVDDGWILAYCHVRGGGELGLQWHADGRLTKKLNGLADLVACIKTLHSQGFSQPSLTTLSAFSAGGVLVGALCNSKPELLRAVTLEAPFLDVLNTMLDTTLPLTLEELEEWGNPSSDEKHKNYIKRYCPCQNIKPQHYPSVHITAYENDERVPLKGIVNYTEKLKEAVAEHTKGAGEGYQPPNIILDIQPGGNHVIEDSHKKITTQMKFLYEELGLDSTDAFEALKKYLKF

This is a selection; strong and weak results do not stand in their true shares. Activity calls are given as the source filed them. Cut-off read from the data, not from the text of the source: active = inhibition above about 50%; inactive = the rest.

This note sets out measurements from PubChem BioAssay AID624481 (The Scripps Research Institute Molecular Screening Center, 2012).

For the assay, the target named is Prolyl endopeptidase-like (Mus musculus) (UniProt Q8C167). As to the kind of experiment: purified PREPL inhibitors, PREPL inhibitor project, biochemical, gel-based competitive ABPP, fluorescence, HTS hits (AID 624481). The conditions noted are these: at 20 µM, stronger effect = higher value.

Consider `CN(C(=O)Cc1ccc(Cl)c(Cl)c1)[C@@H]1CCCC[C@@H]1N1CCCC1`, for which the inhibition is inactive: -32%.
